From US7605156B2 (dated 2009) come the findings set out here.

Read-outs that look alike come from different tables or passages of the source.

In data set [1] the target is T1, cPLA2 (Homo sapiens, UniProt P47712).
T1 sequence (P47712 1-749): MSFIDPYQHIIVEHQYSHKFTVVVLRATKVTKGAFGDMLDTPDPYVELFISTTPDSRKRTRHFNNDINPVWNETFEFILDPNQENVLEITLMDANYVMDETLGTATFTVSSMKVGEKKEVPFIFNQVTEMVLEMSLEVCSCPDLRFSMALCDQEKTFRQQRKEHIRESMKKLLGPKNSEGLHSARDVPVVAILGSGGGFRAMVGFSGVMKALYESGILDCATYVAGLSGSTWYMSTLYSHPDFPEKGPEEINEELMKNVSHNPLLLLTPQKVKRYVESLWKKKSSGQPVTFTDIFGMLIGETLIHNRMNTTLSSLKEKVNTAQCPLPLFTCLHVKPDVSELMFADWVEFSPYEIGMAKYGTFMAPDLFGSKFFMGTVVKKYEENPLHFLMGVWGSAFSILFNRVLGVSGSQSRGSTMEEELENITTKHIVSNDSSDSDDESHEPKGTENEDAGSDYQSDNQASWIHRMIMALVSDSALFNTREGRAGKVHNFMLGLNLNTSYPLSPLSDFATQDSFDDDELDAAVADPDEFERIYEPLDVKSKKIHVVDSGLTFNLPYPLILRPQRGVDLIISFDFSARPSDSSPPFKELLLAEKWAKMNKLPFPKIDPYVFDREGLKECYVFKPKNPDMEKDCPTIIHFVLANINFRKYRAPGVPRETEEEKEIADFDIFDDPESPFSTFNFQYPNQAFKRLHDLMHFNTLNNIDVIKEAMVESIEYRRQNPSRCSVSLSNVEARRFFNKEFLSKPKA
Put plainly: Coumarine assay (hydrolysis of 7-hydroxycoumarinyl 6-heptenoate). In kind it is biochemical. The following applies: Coumarin IC50 (uM), 60 μM 7-hydroxycoumarinyl 6-heptenoate, pH 7.5.

Data set [2] relates to ApoE KO mice. As to the kind of experiment: ApoE knockout mouse model of atherosclerosis. The format is in vivo. Particulars: after 9 and 20 weeks of treatment, compared to control animals.

A word on the IC50: it is the point on the concentration scale where inhibition reaches its midpoint. A lower IC50 goes with inhibition by little substance. In turn, `O=C(O)c1ccc(OCCc2c(CCNS(=O)(=O)/C=C/c3ccccc3)n(C(c3ccccc3)c3ccccc3)c3ccc(Cl)cc23)cc1` [Example 21, 4-(2-{1-benzhydryl-5-chloro-2-[2-({[(E)-2-phenylethenyl]sulfonyl}amino)ethyl]1H-indol-3-yl}ethoxy)benzoic acid] had a half-maximal inhibitory concentration (IC50) in data set [1] of 1.1 µM.
As for `O=C(O)c1ccc(CCCc2c(CCNS(=O)(=O)Cc3ccc(Cl)c(Cl)c3)n(C(c3ccccc3)c3ccccc3)c3ccc(Cl)cc23)cc1` [Example 44], the “serum thromboxane B2 levels” value in data set [2] is on record as “significantly decreased”. Besides, the maximum drug exposure by setting is: (normal chow diet supplemented at 1.3 mg/g) ~250 ng/mL; (normal chow diet supplemented at 3.3 mg/g) ~500 ng/mL.
